{"source": "patent US20210269848A1", "about": "“COMPOSITION OF MICROORGANISMS INDICATING DECONTAMINATION” (NOVOLYZE, priority 2018, published 2021)", "system": "indicator microorganisms"}
{"compound": "CCN(Cc1cccc(S(=O)(=O)O)c1)c1ccc(C(=C2C=CC(=[N+](CC)Cc3cccc(S(=O)(=O)O)c3)C=C2)c2ccccc2S(=O)(=O)[O-])cc1", "note": "[brilliant blue FCF]", "values": [{"measurement": "effect on resistance of the indicator microorganisms to decontamination processes", "result": "increases their resistance to decontamination processes"}]}
